Experiments:
PSD-95-PDZ2 = PSD-95-PDZ2 (Homo sapiens, UniProt P78352); assay: FP saturation and inhibition, TAMRA-Cnskr2 / PSD-95-PDZ2; assay type: binding; set-up: PDZ2 (155-249); made in house; host or cells: E. coli BL21-DE3 pLysS; conditions: TAMRA-Cnskr2 5 nM, PDZ2 1.5 μM
Description: (§1) First we tested a series of 23 fluorescent-labelled C-terminal peptide ligands (Supplementary Table S1) derived from PDZ-interacting proteins in order to find a probe with good activity towards the PSD-95 PDZ domains and no or little activity against nNOS-PDZ (Supplementary Fig. S1). The Cnskr2 probe fulfilled these selectivity criteria and was used to generate saturation curves with PDZ2 and PDZ1-2 of PSD-95 (Fig. 4a). […] Next, fixed concentrations of TAMRA-Cnskr2, PSD-95-PDZ2/1-2, and nNOS-PDZ were applied, corresponding to the conditions at IC50 of the nNOS-PDZ inhibition curve (Fig. 4b) where sensitivity of the assay is greatest. […] Here, we used the Sapk3-peptide as it has the desired high affinity to α1-Syntrophin-PDZ and low affinity to nNOS-PDZ (Supplementary Fig. S1).
(§2) The minor increases in mP at high concentrations, 260-2900 μM, were due to fluorescence artefacts.
(§3) Incubation time was 10–15 minutes (room temperature), and the assay was performed in a 1 × TBS buffer (150 mM NaCl, 10 mM Tris, pH 7.4) using black flat-bottom 384-well plates (Corning Life Sciences, NY) and a Safire2 plate-reader (Tecan, Männedorf, Switzerland). […] TAMRA- and Cy5-probes were measured at excitation/emission values of 530/585 nm (bandwidth = 20 nm) and 635/670 nm (bandwidth = 15 nm), respectively. […]

By UniProt entry, the sequences of proteins in these tests, tags left out. Residues count along the entry.
UniProt P78352, 155-249: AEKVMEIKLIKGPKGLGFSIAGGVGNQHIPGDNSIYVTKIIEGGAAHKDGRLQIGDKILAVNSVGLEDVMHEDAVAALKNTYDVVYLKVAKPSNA
UniProt P78352, 61-249: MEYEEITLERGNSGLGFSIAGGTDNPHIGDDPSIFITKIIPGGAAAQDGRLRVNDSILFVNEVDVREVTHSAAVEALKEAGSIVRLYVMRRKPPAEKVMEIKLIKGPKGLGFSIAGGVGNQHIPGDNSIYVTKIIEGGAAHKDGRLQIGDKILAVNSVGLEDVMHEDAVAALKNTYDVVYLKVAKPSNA

PSD-95-PDZ1-2 = biological target: T1, PSD-95-PDZ1-2 (Homo sapiens, UniProt P78352); assay: FP saturation and inhibition, TAMRA-Cnskr2 / PSD-95-PDZ1-2; assay type: binding; conditions: TAMRA-Cnskr2 5 nM, PDZ1-2 1 μM
T1 construct: PDZ1-2 (61-249); made in house; host or cells: E. coli BL21-DE3 pLysS
Description: as §1, §2, §3

Ki (PSD-95-PDZ2): 1600 ± 20 nM
Ki (PSD-95-PDZ1-2): 4.8 ± 0.3 µM
SMILES: CC[C@H](C)[C@H](N)C(=O)N[C@@H](CCC(=O)O)C(=O)N[C@@H](CO)C(=O)N[C@@H](CC(=O)O)C(=O)N[C@H](C(=O)O)C(C)C [GluN2B-C5]
